These are literature values, as cited in patent US11332716B2, “Methods and compositions for producing pancreatic beta cells” (The Regents of the University of California, priority 2015, dated 2022).

Chains of the proteins cited; added tags and fusions are not shown.
UniProt Q13547, whole entry, species assumed: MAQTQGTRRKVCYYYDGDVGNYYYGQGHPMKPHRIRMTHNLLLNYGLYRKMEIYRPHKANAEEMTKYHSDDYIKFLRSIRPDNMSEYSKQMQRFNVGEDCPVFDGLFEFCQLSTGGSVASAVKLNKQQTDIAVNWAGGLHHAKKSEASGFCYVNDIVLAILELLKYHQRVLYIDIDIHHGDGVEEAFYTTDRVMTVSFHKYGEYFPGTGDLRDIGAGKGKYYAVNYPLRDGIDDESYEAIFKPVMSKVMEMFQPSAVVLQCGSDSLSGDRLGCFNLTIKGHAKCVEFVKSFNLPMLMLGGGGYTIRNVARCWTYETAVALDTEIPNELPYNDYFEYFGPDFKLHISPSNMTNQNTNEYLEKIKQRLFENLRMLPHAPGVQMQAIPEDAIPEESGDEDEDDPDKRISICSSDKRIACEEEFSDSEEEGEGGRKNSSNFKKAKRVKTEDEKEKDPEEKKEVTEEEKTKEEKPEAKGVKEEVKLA

The data set concerns the target HDAC1 (Homo sapiens, UniProt Q13547). The following applies: cited from earlier work.

“4,5:8,9-Dianhydro-1,2,6,7,11-pentadeoxy-D-threo-D-ido-undeca-1,6-dienitol [Depudecin]”: the 50% inhibitory concentration (IC50) was around 4.7 µM.

By IC50 is commonly meant the concentration at which inhibition is half-maximal.
